Compound activity as filed in PubChem.
Rows were chosen to be rich in hits. Some 1.5% of all compounds tested hit in one or more screens of this group.
PglD DTNB – PglD (C. jejuni) enzyme inhibition. AID 602405. inhibition, % at 12.5 µM. purified PglD enzyme, DTNB colorimetric CoA detection. 360,000 compounds, 0.098% hits; in the data active = inhibition above about 16%, passing the limit was not always enough
RAD54 branch – blocks human RAD54 Holliday junction branch migration | inhibition, % at 10.4 µM | FAM/BHQ fluorescence | 360,000 compounds, 0.14% hits;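 active = mean normalized replicate activity at least 40 and at least half of replicates scoring 40 or more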;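 note: 0% = median of neutral control wells and 100% = median of positive control wells; inhibitors cause a drop in the FAM fluorescence signal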
RAD52 inh – blocks human RAD52 DNA annealing. P43351. 360,000 compounds, 0.46% hits. AID 651710. inhibition, % at 18.7 µM. recombinant RAD52 DNA annealing, FRET fluorescence;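 active = every replicate showing at least 50% inhibition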
GSIS activator – GLuc luminescence reporter in INS-1E cells, primary screen for activators of glucose-dependent secretion of insulin. INS-1E GLuc reporter insulin secretion, 2-3 h. activation, % at 16.6 µM. 370,000 compounds, 0.61% hits;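 active = lowest replicate activation of at least 40%, so every replicate reaches that level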;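 note: 0% = median of neutral control wells and 100% = median of IBMX positive control wells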
CASP6 VEID inh – blocks human caspase-6 cleavage activity. AID 686996. P55212. inhibition, % at 12.5 µM. 350,000 compounds, 0.53% hits. purified caspase-6, Z-VEID-R110 cleavage fluorescence;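 active = mean inhibition across replicates at least about 35%, with every replicate also reaching that limit, limit read from the data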;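 note: 0% = median of neutral control wells and 100% = no fluorescence left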
UUG fidelity – modulators of start codon recognition fidelity in yeast; AID 602363; hit rate 0.13% among 350,000; activity score, % at 18.7 µM; S. cerevisiae UUG-firefly luciferase reporter, luminescence/redox ratio;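 active = replicate mean at a twofold rise or more, about +100% in these data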;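 note: firefly luciferase made from a UUG start codon reports start codon fidelity; reporter light over untreated wells divided by growth signal over untreated wells; some hits fall short of that in this replicate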
Starred values were filed as active, the others as inactive; x = no result given.

Values in the order: PglD DTNB, RAD54 branch, RAD52 inh, GSIS activator, CASP6 VEID inh, UUG fidelity
#1 CCn1ccc(C(=O)Nc2ccccc2SC)n1
  x, x, -11, 41*, 7, x
#2 O=C(c1ccc(Cl)c([N+](=O)[O-])c1)N(Cc1ccco1)C1CCS(=O)(=O)C1 (configuration not stated)
  3, -8, -11, 43*, 1, -35
#3 O=C(c1ccco1)N(Cc1ccc(Cl)cc1)C1CCS(=O)(=O)C1 (configuration not stated)
  -3, 3, -6, 42*, -6, -18
#4 O=C(c1cccs1)N(Cc1cccc(F)c1)C1CCS(=O)(=O)C1 (configuration not stated)
  6, 6, -5, 46*, -7, 4
#5 CCc1ccc(CN(C(=O)c2ccco2)C2CCS(=O)(=O)C2)cc1 (configuration not stated)
  3, -12, -7, -17, 1, -8
#6 Cc1ccc(CN(C(=O)c2cccs2)C2CCS(=O)(=O)C2)cc1 (configuration not stated)
  -1, -15, -1, 57*, 0, -5
#7 CCOc1cccc(C(=O)N(Cc2ccco2)C2CCS(=O)(=O)C2)c1 (configuration not stated)
  1, 1, x, x, x, -5
#8 CSCC[C@H](NC(=O)C(C)(C)Oc1ccc(Cl)cc1)c1nc2ccccc2[nH]1
  5, 4, -2, 0, 0, -19
#9 CCC(=O)N(C)C[C@@H]1Oc2cc(-c3cccc(C#N)c3)ccc2S(=O)(=O)N([C@H](C)CO)C[C@@H]1C
  0, 2, -6, 13, 0, -8
#10 N#Cc1ccc(N2CCN(C(=O)c3cccs3)CC2)c(F)c1
  -1, 0, -10, 3, -1, 5
#11 COc1c(Cl)cc(-c2noc(C)c2C(=O)NCCc2ccc(C)cc2)cc1Cl
  -5, -1, -9, 0, 0, 2
#12 O=C(C1CCOCC1)N1CC(=O)N2[C@H](C1)[C@@H](c1ccc(C#CCc3ccccc3)cc1)[C@@H]2CO
  x, x, -20, -21, 1, x
#13 O=C1C(Cl)=C(NCCc2ccccc2)C(=O)c2ccccc21
  0, 5, 1, -38, 44*, -21
#14 O=C1C(Cl)=C(Nc2ccccc2)C(=O)c2ccccc21
  -1, -7, 2, 35, 5, -22
#15 CCN(CC)CCCNC1=C(Cl)C(=O)c2ccccc2C1=O
  0, 32, 15, -18, 38*, -2
#16 O=C1C(Cl)=C(NCc2cccnc2)C(=O)c2ccccc21
  -3, 14, -5, -14, 87*, -28
#17 COCCCNC1=C(Cl)C(=O)c2ccccc2C1=O
  -3, 5, -7, -3, 18, 1
#18 COc1ccc(N2CC(C(=O)Nc3nnc(SCC(=O)Nc4ccc(NC(C)=O)cc4)s3)CC2=O)cc1 (configuration not stated)
  -8, -12, -17, 2, -2, -15
#19 O=C(NCc1ccco1)c1ccc(COc2ccccc2[N+](=O)[O-])o1
  7, 8, -9, 20, 4, -14
#20 Cc1cccc(N2C(=O)C(Cl)=C(N3CCOCC3)C2=O)c1
  5, -6, 14, 4, 9, -13
#21 O=C1C(Cl)=C(N2CCOCC2)C(=O)N1c1cccc(Cl)c1
  4, -3, x, 45*, x, -12
#22 COc1ccc(S(=O)(=O)N2CCOCC2)cc1NC(=O)CN1CCN(C)CC1
  x, x, 0, -1, 1, x
#23 COc1ccc(CN(C)C(=O)c2ccc(OCC(=O)Nc3cccc(C(F)(F)F)c3)c(OC)c2)c(OC)c1
  -6, 4, 1, -36, 57*, 1
#24 O=[N+]([O-])c1ccc(N2CCCCC2)cc1N1CCOCC1
  x, x, -5, 45*, 0, x
#25 C/C(=N\Nc1ccc(C(=O)O)cc1)c1ccc(Br)cc1
  -3, 0, -15, -12, 43*, -11
#26 C/C(=N/Nc1ncc(Br)cn1)c1ccc(Br)cc1
  -2, -10, -22, 4, 2, -15
#27 CCCCCCn1c(-c2cccs2)n[nH]c1=S
  -2, -2, -7, 46*, 6, -8
#28 CCCCn1c(-c2csc3ccccc23)n[nH]c1=S
  1, 3, x, 26, x, -19
#29 O=C(O)CC1S/C(=N/N=C/c2ccc(-c3ccc(Cl)cc3[N+](=O)[O-])o2)NC1=O (configuration not stated)
  x, 4, x, x, x, -30
#30 O=C(O)CC1S/C(=N/N=C/c2ccc(-c3ccc(Cl)c([N+](=O)[O-])c3)o2)NC1=O (configuration not stated)
  x, x, -13, 3, 35*, x
#31 O=c1c2ccccc2ncn1CCCOc1ccccc1[N+](=O)[O-]
  0, 6, x, -3, x, -4
#32 Nc1nc(N)nc(-c2cccc([N+](=O)[O-])c2)n1
  0, -2, -5, 60*, 2, -23
#33 COc1ccc(OC)c(C(c2nnnn2Cc2ccccc2)N2CCN(C3CCCCC3)CC2)c1 (configuration not stated)
  2, -14, x, x, x, -8
#34 O=C(Nc1ccccc1)C1=C[C@@H](c2ccc3c(c2)Cc2ccccc2-3)C[C@@H](OCCCCO)O1
  -4, 11, 52*, x, 2, -4
#35 COc1ccc(C(=O)O/N=C(\N)c2ccc(OC)c(OC)c2)c(OC)c1
  -9, 2, x, x, x, 6
#36 COc1ccc(C(=O)O/N=C(\N)c2ccc(OC)c(OC)c2)cc1
  1, -23, -12, 45*, -2, -7
#37 Cc1ccc(/C(N)=N/OC(=O)c2ccc3ccccc3c2)cc1
  -2, -3, -1, x, 55*, 11
#38 CS(=O)(=O)N1CCc2ccccc2C1
  -3, 7, x, x, x, -7
#39 O=C(NC1CCC1)[C@@H]1[C@@H](CO)[C@@H]2Cn3c(ccc(-c4ccccc4F)c3=O)[C@@H]2N1Cc1ccncc1
  -1, 11, 85*, -1, -2, x
#40 CC(C)CN(C(=O)COC(=O)c1ccc([N+](=O)[O-])s1)c1c(N)n(Cc2ccccc2)c(=O)[nH]c1=O
  -2, -1, 0, -14, 82*, -18
#41 CC(C)CN(C(=O)COC(=O)c1cccs1)c1c(N)n(Cc2ccccc2)c(=O)[nH]c1=O
  5, -7, -27, -26, -3, -5
#42 COCCN(C(=O)COC(=O)/C=C/c1cccs1)c1c(N)n(Cc2ccccc2)c(=O)[nH]c1=O
  -1, -8, -8, 25, 0, -16
#43 CCCCn1c(N)c(N(CCC(C)C)C(=O)COC(=O)c2ccc([N+](=O)[O-])s2)c(=O)[nH]c1=O
  1, 2, -8, -25, 95*, 5
#44 CC(C)CN(C(=O)COC(=O)/C=C/c1cccs1)c1c(N)n(Cc2ccccc2)c(=O)[nH]c1=O
  x, x, -8, 44*, -3, x
#45 COc1cc2c(-c3ccccc3O)nc3c(c(C)nn3-c3ccccc3)c2cc1OC
  -9, 5, x, 6, x, -20
#46 O=C(Nc1cccc2ncccc12)c1ccccc1Cl
  11, 0, 1, -3, 3, -11
#47 Nc1cc(S(=O)(=O)O)cc2ccc(S(=O)(=O)O)cc12
  1, -6, -27, x, 57*, -4

5 records picked at random from those above, as already listed:
Values in the order: PglD DTNB, RAD54 branch, RAD52 inh, GSIS activator, CASP6 VEID inh, UUG fidelity
#40 CC(C)CN(C(=O)COC(=O)c1ccc([N+](=O)[O-])s1)c1c(N)n(Cc2ccccc2)c(=O)[nH]c1=O
  -2, -1, 0, -14, 82*, -18
#36 COc1ccc(C(=O)O/N=C(\N)c2ccc(OC)c(OC)c2)cc1
  1, -23, -12, 45*, -2, -7
#15 CCN(CC)CCCNC1=C(Cl)C(=O)c2ccccc2C1=O
  0, 32, 15, -18, 38*, -2
#47 Nc1cc(S(=O)(=O)O)cc2ccc(S(=O)(=O)O)cc12
  1, -6, -27, x, 57*, -4
#16 O=C1C(Cl)=C(NCc2cccnc2)C(=O)c2ccccc21
  -3, 14, -5, -14, 87*, -28
